Test results reported in PMC6087491 (Bioorganic & medicinal chemistry, 2018).

Test: Preliminary pharmacokinetic study of compound 12 in rats
Conditions: metabolite after single oral 100 mg/kg of compound 12, PO-1 formulation

pterostilbene-4′-O-sulfate
time of maximum concentration after oral administration: 2.0 h
